System: isolated renal cortical cells (IRCC)
Test: LDH release from isolated renal cortical cells
Conditions: for Effect of pretreatment on 4-A2CP cytotoxicity: 4-A2CP 0.5 and 1.0 mM, pretreatment concentration and time per Table 1

Compound | Cytotoxicity (LDH release) in words (aminophenol 0.5 mM, IRCC, 1 h (Fig. 2)) | Effect of pretreatment on 4-A2CP cytotoxicity
Nc1ccc(O)cc1 [4-AP, 4-aminophenol] | Cytotoxicity was not observed | –
Cn1cc[nH]c1=S [Methimazole] | – | No alteration
CC(=O)N1CCN(c2ccc(OCC3COC(Cn4ccnc4)(c4ccc(Cl)cc4Cl)O3)cc2)CC1 (stereo not drawn) [Ketoconazole] | – | No alteration

From article PMC4402242 (Chemico-biological interactions, 2014)
